Test results from ChEMBL document CHEMBL1131355 (Bioorg Med Chem Lett, 1998).

The chains behind the UniProt entries cited, without tags or fusion partners.
UniProt P14842, whole entry: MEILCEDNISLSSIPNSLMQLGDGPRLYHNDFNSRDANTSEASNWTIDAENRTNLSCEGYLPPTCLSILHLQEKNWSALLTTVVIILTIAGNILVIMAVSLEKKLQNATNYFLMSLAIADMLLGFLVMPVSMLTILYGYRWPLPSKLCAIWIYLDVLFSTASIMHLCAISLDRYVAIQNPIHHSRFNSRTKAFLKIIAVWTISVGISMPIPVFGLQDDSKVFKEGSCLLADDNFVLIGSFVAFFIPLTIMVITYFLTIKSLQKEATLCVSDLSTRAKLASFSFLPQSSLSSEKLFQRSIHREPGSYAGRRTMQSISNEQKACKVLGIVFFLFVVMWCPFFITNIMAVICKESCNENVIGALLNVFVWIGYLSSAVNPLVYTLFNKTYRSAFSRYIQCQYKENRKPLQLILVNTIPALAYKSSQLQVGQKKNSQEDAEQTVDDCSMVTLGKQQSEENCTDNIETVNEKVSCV

Target: 5-hydroxytryptamine receptor 2A (Rattus norvegicus, UniProt P14842)
Assay: biochemical
Assay type: tissue-based, Frontal cortex, Membrane

| SMILES | pKi |
| --- | --- |
| O=C1CC(CN2CCOCC2)Cc2[nH]c3ccccc3c21 (stereo not drawn) | < 5.00 |
| CCN(CC)CC1CC(=O)c2c([nH]c3ccccc23)C1 (stereo not drawn) | < 5.00 |
| CCN(CC)CC1CC(=O)c2c(n(C)c3ccccc23)C1 (stereo not drawn) | < 5.00 |

pKi: −log10 of the molar value.
